US9075014B2, “pH-responsive fluorescent false neurotransmitters and their use” (THE TRUSTEES OF COLUMBIA UNIVERSITY IN THE CITY OF NEW YORK, priority 2011, dated 2015)
Entries after “also recorded” stand apart in the source; their conditions may differ.

Sequences of proteins named here, by UniProt entry; tags and fusion partners are left off.
UniProt Q01827, whole entry: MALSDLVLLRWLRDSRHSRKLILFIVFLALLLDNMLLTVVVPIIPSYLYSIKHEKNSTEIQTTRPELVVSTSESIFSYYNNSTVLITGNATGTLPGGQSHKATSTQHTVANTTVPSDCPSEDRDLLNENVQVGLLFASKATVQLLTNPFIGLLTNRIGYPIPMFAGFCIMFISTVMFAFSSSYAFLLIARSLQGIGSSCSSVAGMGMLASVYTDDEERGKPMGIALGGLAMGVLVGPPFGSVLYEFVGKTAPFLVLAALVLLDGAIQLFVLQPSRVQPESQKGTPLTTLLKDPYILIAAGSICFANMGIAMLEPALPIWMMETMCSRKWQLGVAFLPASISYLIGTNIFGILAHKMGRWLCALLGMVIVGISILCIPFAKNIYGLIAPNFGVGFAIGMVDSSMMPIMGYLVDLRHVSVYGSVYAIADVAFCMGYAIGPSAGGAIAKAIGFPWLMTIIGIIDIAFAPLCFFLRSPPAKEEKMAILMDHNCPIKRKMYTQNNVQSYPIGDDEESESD

Molecular target: T1, VMAT2 (Rattus norvegicus, UniProt Q01827)
T1 construct: host or cells: HEK GnTI- (nonglycosylating) cells stably expressing VMAT2
Assay: Fluorescent microscopy probe uptake assay in VMAT2/HEK cells
Assay type: cell-based
Conditions: 1 μM inhibitor pre-incubation 1 hour, then 20 μM probe 30 min
Description: HEK GNTI^− (nonglycosylating) cell line stably expressing VMAT2 (VMAT2-HEK) and HEK GNU^− cell line stably transected with TetR (HEK) to serve as a control were kindly provided by the laboratory of Robert Edwards at UCSF. Cells were grown in DMEM+Glutamax (Invitrogen #10569) with 10% fetal bovine serum (FBS) (Atlanta Biologicals), 100 U/ml penicillin (Nitrogen), and 100 μg/ml streptomycin (Invitrogen). […] After 5 days, the cells looked fibroblastic and had reached ˜70% confluence. The medium was removed by aspiration, and the cells were washed with PBS (2 mL per well). […] Then, the probe uptake was initiated by adding 0.1 mL of experimental media containing probe (220 μM, prepared from 10 mM stock solution in DMSO, final conc.=20 μM in the uptake assay). After incubating at 37° C. for 30 minutes, the media was removed by aspiration, and the cells were washed with PBS (2 mL per well) and treated with probe-free experimental media. Fluorescence images were taken by using Leica FW 4000 equipped with Chroma custom filter cube (ex=350/50 nm, em=460/50 nm) and Hamamatsu digital camera C4742-95. The fluorescent images and bright field images were acquired for 2000 ms and 37 ms, respectively. All images were adjusted using the same contrast and brightness level using Images J (National Institute of Health).

| Compound | Effect of VMAT2 inhibitor on probe uptake in VMAT2-HEK cells | Effect of VMAT2 inhibitor on probe uptake in VMAT2-HEK cells (listed as TBZ) |
| --- | --- | --- |
| COC(=O)[C@H]1[C@H]2C[C@@H]3c4[nH]c5cc(OC)ccc5c4CCN3C[C@H]2C[C@@H](OC(=O)c2cc(OC)c(OC)c(OC)c2)[C@@H]1OC [reserpine, reference compound] | strongly diminished; also recorded: abolished the uptake |  |
| COc1cc2c(cc1OC)C1CC(=O)C(CC(C)C)CN1CC2 (stereo not drawn) [tetrabenazine, reference compound] | strongly diminished; also recorded: abolished | abolished the uptake |
